Experiments:
[1] = biological target: T1, rigor PFA.S1 complex (cardiac myosin S1) (Oryctolagus cuniculus, UniProt P68135); experiment: Stopped-flow ATP-induced dissociation of actin-S1 complex (ATP binding and isomerization); type: biochemical, bovine
T1 construct: Rabbit skeletal F-actin was prepared as described previously from acetone powder; tissue Pelfreez Biologicals (bovine left ventricular muscle); host or cells: rabbit skeletal muscle (actin); bovine left ventricular muscle (myosin S1)
Experimental: To determine the equilibrium constant K1 for the formation of the collision complex, A.M.T, the rigor complex of PFA and myosin-S1 complex was formed in one syringe and the Mg.ATP placed in another syringe. […] (Equation 10). The rate constant k+2 was determined from hyperbolic plots of kobs1 versus [MgATP] […] The association equilibrium constant K1 was determined from the ratio of K1k+2/k+2.
Experiments were performed at 25 °C with filtered and degassed solutions. The instrument dead time for single-mix experiments was 1.3 ms. Samples were excited at 365 nm, and pyrene emission fluorescence was acquired with a 2 mm path length and 400 nm long-pass filter. Data analysis was done using the program, ORIGIN (OriginLab Corp).
K1 was determined by mixing the rigor complex of PFA.S1 (A.M) (final concentration of 0.05 μM) with varying final concentrations of MgATP (12.5–1000 μM) in F-Mg buffer in the absence and presence of the compounds, whereby the PFA.compound complex was first made, then mixed with S1, and placed in one syringe, and MgATP solution was placed in the other syringe. The transient curves were fitted to rate constants, kobs, fast and kobs, slow, and with corresponding amplitudes A1 and A2.

[2] = biological target: T2, PFA.C.S1 complex (F-actin with cardiac S1) (Oryctolagus cuniculus, UniProt P68135); experiment: Steady-state S1 binding to and ATP-induced dissociation from the PFA.compound complex; type: biochemical, bovine; settings: 0.7:1 S1:actin, rigor; compound 100 μM except Flu and Dan 50 μM, Mit 10 μM
T2 construct: Rabbit skeletal F-actin was prepared as described previously from acetone powder; tissue Pelfreez Biologicals (bovine left ventricular muscle); host or cells: rabbit skeletal muscle (actin); bovine left ventricular muscle (myosin S1)
Experimental: We then added Mg.ATP and measured PFA fluorescence (Fig. 8B, peach bars).
Fluorescence spectra of 2 μM PFA in F-Mg buffer were acquired with a Cary spectrophotometer. The sample was placed in a cuvette in a temperature-controlled holder and excited with a Xenon flash lamp at 365 nm with 5 nm slit width. Emission fluorescence intensity was acquired and averaged for 30 s at 407 nm with a 10 nm slit width. […] Fluorescence intensity (F) was corrected for each compound's emission at 407 nm.
Fcalc was determined from normalized fluorescence intensity:(5) Fcalc=(FCompound+F0.7S1)

[3] = biological target: T3, pyrene-labeled F-actin (PFA) (Oryctolagus cuniculus, UniProt P68135); experiment: Compound binding to pyrene-labeled F-actin, steady-state fluorescence dose response; parameters: species or system rabbit
T3 construct: Rabbit skeletal F-actin was prepared as described previously from acetone powder; from tissue; host or cells: rabbit skeletal muscle (acetone powder)

## OCCN1CCN(CCCN2c3ccccc3Sc3ccc(C(F)(F)F)cc32)CC1 [Flp]
[1]
  increase in K1 versus control: ≥ 2 factor
[1]; severe if at least one parameter (K1 or k+2) was affected >3-fold
  overall category of compound effect: severe (severe effects to be >3-fold)
[2]
  decrease in PFA fluorescence of PFA.compound.S1, experimental versus calculated (Fcalc): smaller decrease in PFA fluorescence than expected
[3]; 2.5–150 μM compound, 2 μM PFA
  effect on PFA (pyrene) fluorescence, dose-response: decreased PFA fluorescence with hyperbolic dependence
[3]; 200-500 μM MgATP
  effect of MgATP on fluorescence of PFA–compound complexes: increased PFA fluorescence in the presence of MgATP
